Where two headings read alike, the source gives them in different places.

The assay deals with T2MycNick cells. The assay can be described thus: Testing compounds for their ability of restoring contact inhibition (vacuolation, cell density). It is filed as cell-based, murine. To be noted: Mus musculus.

For `C[C@@H]1C[C@H]2[C@@H]3C[C@H](F)C4=CC(=O)C=C[C@]4(C)[C@@]3(F)[C@@H](O)C[C@]2(C)[C@@]1(O)C(=O)CO` [CI044, Flumethasone], the minimal effective concentration was 2.5 µM (read-out: Conc that reduces > 50% in the cell density) and 0.625 µM (read-out: Min. effective conc. that elicits vacuolation).

The values are drawn from patent publication US20240100068A1, “METHODS COMPRISING ADMINISTRATION OF A GLUCOCORTICOID RECEPTOR AGONIST AND AN INHIBITOR OF CALCINEURIN” (Chengdu Anticancer Bioscience, Ltd., priority 2022, published 2024).
